The values that follow come from article PMC11006857, “Structure-guided functional suppression of AML-associated DNMT3A hotspot mutations” (Nature Communications, 2024).

This assay addresses DNMT3A MTase domain ([…]), WT (human). Description: SEC; Superdex 200 Increase 10/300 GL, 100 µL of 0.5 mg/mL protein, 20 mM Hepes pH 7.2, 250 mM NaCl, 5% glycerol, 5 mM DTT; homo-oligomeric DNMT3A MTase compared with the DNMT3A MTase-DNMT3L complex. The following applies: both partners purified.

B1: DNMT3L C-terminal domain (residues 178-386) (domain or fragment, UniProt Q9UJW3 178-386, looked up)
chain: MFETVPVWRRQPVRVLSLFEDIKKELTSLGFLESGSDPGQLKHVVDVTDTVRKDVEEWGPFDLVYGATPPLGHTCDRPPSWYLFQFHRLLQYARPKPGSPRPFFWMFVDNLVLNKEDLDVASRFLEMEPVTIPDVHGGSLQNAVRVWSNIPAIRSRHWALVSEEELSLLAQNKQSSKLAAKWPTKLVKNCFLPLREYFKYFSTELTSSL
notes: DNMT3L C-terminal domain, residues 178-386; Run on the column as a purified complex with the DNMT3A MTase domain; source: purified
As for B1, the binding result is “binds”.
